# Assay results reported in patent publication US20250295627A1 (Leibniz-Institut Fuer Neurobiologie, priority 2022, published 2025).
# What was measured:
# GST-LMO4 = target: T1, GST-LMO4 (Homo sapiens, UniProt P61968); experiment: Isothermal titration calorimetry (ITC); assay type: binding
# T1 construct: made in house; host or cells: E. coli BL21 (DE3)
# T1 sequence (P61968 1-165): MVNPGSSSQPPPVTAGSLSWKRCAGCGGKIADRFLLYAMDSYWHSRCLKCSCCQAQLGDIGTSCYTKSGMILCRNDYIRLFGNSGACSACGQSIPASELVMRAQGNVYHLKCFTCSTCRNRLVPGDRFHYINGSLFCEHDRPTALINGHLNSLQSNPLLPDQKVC
# Jacob-LMO4 binding = Jacob-LMO4 binding (Homo sapiens, UniProt P61968)
# LMO4-CREB binding = LMO4-CREB binding (Homo sapiens, UniProt P61968)
smiles,measurement,setting,value
"O=[N+]([O-])c1ccc([As](=O)(O)O)cc1 [Nitarsone, (4-nitrophenyl) arsonic acid]",number of binding sites in LMO4,GST-LMO4,single binding site
same,binding of Jacob to LMO4,Jacob-LMO4 binding,completely abolished binding of Jacob to LMO4
same,displacement of CREB from LMO4,LMO4-CREB binding,did not displace CREB from LMO4
